Patent US12128018B2, “Combination of a selective histone deacetylase 3 (HDAC3) inhibitor and an immunotherapy agent for the treatment of cancer” (KDAc Therapeutics, Inc., priority 2018, dated 2024)

Test system: MHC class II (IA-IE) in P388D1 cells
Assay: in vitro induction of MHC class II (IA-IE) in P388D1 cells (FACS)
Conditions: various concentrations (FIGS. 14 and 15)

SMILES: Nc1cc(F)ccc1NC(=O)N1Cc2ccccc2C1
- MHC class II protein levels (geometric mean MFI): capable of increasing MHC class II protein levels
